PubChem BioAssay (NCI)
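Results reflect a 48-hour exposure of cells in 96-well plates to compound at five concentrations. Here, GI50 denotes the concentration required for 50% inhibition of growth. TGI is the concentration that stops growth completely.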

Tests used:
Assay in all cases: NCI tumour cell line growth inhibition, 48 h
[1] = test system: 786-0 renal
[2] = test system: A498 renal
[3] = test system: A549 NSCLC
[4] = test system: ACHN renal
[5] = test system: BT-549 breast
[6] = test system: CAKI-1 renal
[7] = test system: CCRF-CEM leukemia
[8] = test system: COLO 205 colon
[9] = test system: DU-145 prostate
[10] = test system: EKVX NSCLC
[11] = test system: HCC-2998 colon
[12] = test system: HCT-116 colon
[13] = test system: HCT-15 colon
[14] = test system: HL-60(TB) leukemia
[15] = test system: HOP-62 NSCLC
[16] = test system: HOP-92 NSCLC
[17] = test system: HS 578T breast
[18] = test system: HT29 colon
[19] = test system: IGROV1 ovarian
[20] = test system: K-562 leukemia
[21] = test system: KM12 colon
[22] = test system: LOX IMVI melanoma
[23] = test system: M14 melanoma
[24] = test system: MALME-3M melanoma
[25] = test system: MCF7 breast
[26] = test system: MDA-MB-231 breast
[27] = test system: MDA-MB-435
[28] = test system: MDA-N
[29] = test system: MOLT-4 leukemia
[30] = test system: NCI-H226 lung
[31] = test system: NCI-H23 lung
[32] = test system: NCI-H322M lung
[33] = test system: NCI-H460 lung
[34] = test system: NCI-H522 lung
[35] = test system: NCI/ADR-RES ovarian
[36] = test system: OVCAR-3 ovarian
[37] = test system: OVCAR-4 ovarian
[38] = test system: OVCAR-5 ovarian
[39] = test system: OVCAR-8 ovarian
[40] = test system: PC-3 prostate
[41] = test system: RPMI-8226 leukemia
[42] = test system: RXF 393 renal
[43] = test system: SF-268 CNS
[44] = test system: SF-295 CNS
[45] = test system: SK-MEL-2 melanoma
[46] = test system: SK-MEL-28 melanoma
[47] = test system: SK-MEL-5 melanoma
[48] = test system: SK-OV-3 ovarian
[49] = test system: SN12C renal
[50] = test system: SNB-19 CNS
[51] = test system: SNB-75 CNS
[52] = test system: SR leukemia
[53] = test system: SW-620 colon
[54] = test system: T-47D breast
[55] = test system: TK-10 renal
[56] = test system: U251 CNS
[57] = test system: UACC-257 melanoma
[58] = test system: UACC-62 melanoma
[59] = test system: UO-31 renal

O=C(NCCC(F)([N+](=O)[O-])[N+](=O)[O-])NCCC(F)([N+](=O)[O-])[N+](=O)[O-]
GI50 [1]: 0.904 µM | TGI [1]: 11.6 µM | GI50 [2]: 12.8 µM | TGI [2]: 89.4 µM | GI50 [3]: 10.8 µM | TGI [3]: 31.9 µM | GI50 [4]: 2.14 µM | TGI [4]: 9.44 µM | GI50 [5]: 4.18 µM | TGI [5]: 32 µM | GI50 [6]: 2.63 µM | TGI [6]: 7.03 µM | GI50 [7]: 2.75 µM | TGI [7]: 29.6 µM | GI50 [8]: 1.95 µM | TGI [8]: 4.21 µM | GI50 [9]: 11.6 µM | TGI [9]: 25.8 µM | GI50 [10]: 3.6 µM | TGI [10]: 29 µM | GI50 [11]: 14.5 µM | TGI [11]: 36.3 µM | GI50 [12]: 5.48 µM | TGI [12]: 25.4 µM | GI50 [13]: 3.33 µM | TGI [13]: 34.7 µM | GI50 [14]: 0.947 µM | TGI [14]: 3.35 µM | GI50 [15]: 12.7 µM | TGI [15]: 36.5 µM | GI50 [16]: 4.64 µM | TGI [16]: 21.4 µM | GI50 [17]: 18.3 µM | TGI [17]: 62.5 µM | GI50 [18]: 4.52 µM | TGI [18]: 32.6 µM | GI50 [19]: 3.86 µM | TGI [19]: 11.8 µM | GI50 [20]: 0.837 µM | TGI [20]: 35.4 µM | GI50 [21]: 11 µM | TGI [21]: 47.6 µM | GI50 [22]: 8.57 µM | TGI [22]: 41.5 µM | GI50 [23]: 4.62 µM | TGI [23]: 25.6 µM | GI50 [24]: 3.46 µM | TGI [24]: 19.4 µM | GI50 [25]: 9.43 µM | TGI [25]: 42.7 µM | GI50 [26]: 14.7 µM | TGI [26]: 35 µM | GI50 [27]: 2.14 µM | TGI [27]: 8.51 µM | GI50 [28]: 1.65 µM | TGI [28]: 5.15 µM | GI50 [29]: 3.01 µM | TGI [29]: 29.4 µM | GI50 [30]: 20.3 µM | TGI [30]: 55.4 µM | GI50 [31]: 14.4 µM | TGI [31]: 51.2 µM | GI50 [32]: 22.1 µM | TGI [32]: 62.2 µM | GI50 [33]: 9.89 µM | TGI [33]: > 100 µM | GI50 [34]: 1.19 µM | TGI [34]: 14.2 µM | GI50 [35]: 8.33 µM | TGI [35]: 59 µM | GI50 [36]: 6.38 µM | TGI [36]: 24.6 µM | GI50 [37]: 11.6 µM | TGI [37]: 57 µM | GI50 [38]: 22.7 µM | TGI [38]: 47.9 µM | GI50 [39]: 9.02 µM | TGI [39]: 53.2 µM | GI50 [40]: 12.6 µM | TGI [40]: 29.2 µM | GI50 [41]: 1.81 µM | TGI [41]: 6 µM | GI50 [42]: 9.29 µM | TGI [42]: 40.4 µM | GI50 [43]: 16.7 µM | TGI [43]: 67 µM | GI50 [44]: 17.3 µM | TGI [44]: 35.9 µM | GI50 [45]: 17.1 µM | TGI [45]: 37.2 µM | GI50 [46]: 13.7 µM | TGI [46]: 51.3 µM | GI50 [47]: 5.76 µM | TGI [47]: 22 µM | GI50 [48]: 27.3 µM | TGI [48]: 63.2 µM | GI50 [49]: 14.2 µM | TGI [49]: 32.1 µM | GI50 [50]: 25.3 µM | TGI [50]: 57.2 µM | GI50 [51]: 11.9 µM | TGI [51]: 50.4 µM | GI50 [52]: 0.568 µM | TGI [52]: 4.67 µM | GI50 [53]: 2.48 µM | TGI [53]: 34.5 µM | GI50 [54]: 3.33 µM | TGI [54]: 15.7 µM | GI50 [55]: 2.37 µM | TGI [55]: 18.8 µM | GI50 [56]: 19.5 µM | TGI [56]: 58.8 µM | GI50 [57]: 12.8 µM | TGI [57]: 28.1 µM | GI50 [58]: 7.77 µM | TGI [58]: 23.5 µM | GI50 [59]: 4.75 µM | TGI [59]: 19.1 µM
